Test: solubility of phosphatidic acid and short-chain analog in water
Details: native long acyl chains
Source text: Most native lipids have long fatty acyl side chains rendering them insoluble and difficult to work with in an aqueous environment.

phosphatidic acid
solubility in water: insoluble

From US8669065B1, “Methods for identifying molecules that modulate lipid binding sites of ion channels” (priority 2011, dated 2014)
